## AlphaSeq binding of Ab-14 heavy chain variants to a spike HR2 peptide

The measurements come from Engelhart et al. 2022 (doi:10.1038/s41597-022-01779-4) through the FLAb antibody collection.

Target peptide (SARS-CoV-2 spike, HR2 region): PDVDLGDISGINAS

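AAYL49 was designed without a model: most single CDR substitutions and a random sample of double and triple ones. Affinity was read by AlphaSeq, a pooled yeast mating assay with surface-displayed partners. The frequency of each diploid, read from paired DNA barcodes, reflects how well the two displayed proteins bind. Read counts were normalised to the haploid input and turned into Kd by a linear fit to BCL2-family pairs of known affinity, for each replicate. Mating was done three times.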

Each scFv is VH, three GGGGS repeats, VL, as in the parent Ab-14, and differs from it in the CDRs of the heavy chain only.
VH: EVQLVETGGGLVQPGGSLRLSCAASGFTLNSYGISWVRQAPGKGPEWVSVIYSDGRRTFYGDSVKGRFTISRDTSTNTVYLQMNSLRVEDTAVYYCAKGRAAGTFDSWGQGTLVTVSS
VL: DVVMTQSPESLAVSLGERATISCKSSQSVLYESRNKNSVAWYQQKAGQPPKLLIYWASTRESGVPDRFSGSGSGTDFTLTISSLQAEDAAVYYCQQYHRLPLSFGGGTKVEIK

Positions count from residue 1 of the parent VH; T28D puts D in place of T. Values are log10 of the apparent Kd in nM; lower means stronger binding. A mean of the replicates is given; it leaves out those without a signal. Where no diploid with the target was found in any replicate, the entry reads "not detected": below detection, most likely a poor binder, though not proof of it. Nonspecific signal, from three strains lacking the peptide, appeared in 15% of pairings of library AAYL49, centred on 4.06 (5% of these signals below 2.83); values are not corrected for it. Also given: how often the same scFv was detected with the empty control strains.

changes	log10 Kd (nM), mean	seen in	control signals
T28D/G33W	5.73	1 of 3	4 of 9
L29V/S31M/D106V	1.17	3 of 3	1 of 9
Y60P/R100H/D106Y	5.02	2 of 3	1 of 9
V50D/D54Y/R56D	not detected	0 of 3	1 of 9
F27W/F105E/D106V	2.47	1 of 3	1 of 9
G26F/T28M/A101M	not detected	0 of 3	0 of 9
R57A/D62V/F105A	4.11	2 of 3	2 of 9
L29S/Y32V/F59S	not detected	0 of 3	0 of 9
G26S/T28Y/A102I	not detected	0 of 3	1 of 9
I51T/R56D/D106F	not detected	0 of 3	3 of 9
D54Q/K65R/T104D	not detected	0 of 3	0 of 9
Y52N/D54S/D62S	not detected	0 of 3	0 of 9
G33N/T58A/S63V	5.30	1 of 3	5 of 9
N30M/Y32W/T58P	5.07	2 of 3	3 of 9
G33P/V64K/R100L	3.30	1 of 3	3 of 9
Y32F/V50W/Y60K	not detected	0 of 3	0 of 9
V50I/S53F/G61F	not detected	0 of 3	0 of 9
G61C/R100I/D106Q	4.92	2 of 3	4 of 9
Y32G/R56N/A101K	4.65	2 of 3	2 of 9
T28N/S63H/G99K	not detected	0 of 3	0 of 9
G26T/D62M/K65D	4.96	1 of 3	1 of 9
F27L/R56N/S63A	3.14	2 of 3	0 of 9
Y52H/T58H/S107I	not detected	0 of 3	0 of 9
T28V/N30R/R56Q	2.73	3 of 3	2 of 9
N30G/G33N/V64D	3.60	3 of 3	3 of 9
G26N/V64N/G103Q	not detected	0 of 3	0 of 9
F27A/G61N/D62V	not detected	0 of 3	1 of 9
S53Q/Y60G	not detected	0 of 3	0 of 9
F27Y/R56Q/R57E	2.73	1 of 3	5 of 9
S63P/D106N/S107L	not detected	0 of 3	0 of 9
G33I/I34A/D54N	not detected	0 of 3	1 of 9
Y52T/S63Y/A101P	3.52	2 of 3	3 of 9
S35M/Y52H/T104Y	not detected	0 of 3	0 of 9
R56A/K65E/A101C	2.88	3 of 3	6 of 9
F59K/R100V/S107D	2.82	3 of 3	0 of 9
R56W/G103M/D106Y	not detected	0 of 3	0 of 9
G26M/D54A/S63H	not detected	0 of 3	0 of 9
G26C/G61V/D62K	3.68	1 of 3	3 of 9
Y32L/S63R	3.84	2 of 3	3 of 9
L29V/Y32C/G103Y	4.80	1 of 3	0 of 9
T28G/S53H/S63Q	1.64	3 of 3	1 of 9
G33Q/I51A/T58D	not detected	0 of 3	0 of 9
G26H/V50G/T104Q	not detected	0 of 3	1 of 9
S31C/D54T/T58S	not detected	0 of 3	1 of 9
V50Q/D54G/T104C	not detected	0 of 3	0 of 9
N30I/G99S/S107F	not detected	0 of 3	1 of 9
T58N/V64P/S107M	not detected	0 of 3	0 of 9
F27M/T28C/S53Y	not detected	0 of 3	0 of 9
G26L/T28W/V50E	5.89	1 of 3	1 of 9